What was measured:
Histone deacetylase 1 = Histone deacetylase 1 (Homo sapiens, UniProt Q13547); test: Inhibition of recombinant HDAC1 assessed as inhibition of fluorogenic aminocoumarin release from substrate by trypsin-coupled biochemical assay
How it was run: (§1)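 Trypsin-coupled fluorogenic assay. Substrate is an acetylated lysine tripeptide amide-linked to aminocoumarin (AMC). HDAC deacetylation allows trypsin to release AMC, and the fluorescence increase is read. Compound was tested at various concentrations and normalized to a DMSO control. IC50 was derived by non-linear regression fit.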

Sequences of proteins named here, by UniProt entry; tags and fusion partners are left off. A change or cut given only in a name is not applied to a line headed by its entry.
UniProt Q13547, whole entry: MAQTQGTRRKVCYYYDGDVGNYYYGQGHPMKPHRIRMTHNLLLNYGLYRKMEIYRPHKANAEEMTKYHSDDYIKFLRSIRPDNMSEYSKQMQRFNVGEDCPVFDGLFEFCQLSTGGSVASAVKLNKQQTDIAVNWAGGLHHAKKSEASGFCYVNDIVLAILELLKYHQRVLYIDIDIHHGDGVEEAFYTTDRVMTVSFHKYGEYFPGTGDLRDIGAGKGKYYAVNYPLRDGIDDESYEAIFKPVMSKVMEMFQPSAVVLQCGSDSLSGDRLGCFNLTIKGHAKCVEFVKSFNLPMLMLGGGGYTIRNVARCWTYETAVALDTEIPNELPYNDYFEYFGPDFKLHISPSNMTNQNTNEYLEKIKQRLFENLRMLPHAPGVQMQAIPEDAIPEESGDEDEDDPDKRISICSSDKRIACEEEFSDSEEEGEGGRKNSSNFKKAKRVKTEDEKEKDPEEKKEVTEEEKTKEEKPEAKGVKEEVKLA
UniProt Q92769, whole entry: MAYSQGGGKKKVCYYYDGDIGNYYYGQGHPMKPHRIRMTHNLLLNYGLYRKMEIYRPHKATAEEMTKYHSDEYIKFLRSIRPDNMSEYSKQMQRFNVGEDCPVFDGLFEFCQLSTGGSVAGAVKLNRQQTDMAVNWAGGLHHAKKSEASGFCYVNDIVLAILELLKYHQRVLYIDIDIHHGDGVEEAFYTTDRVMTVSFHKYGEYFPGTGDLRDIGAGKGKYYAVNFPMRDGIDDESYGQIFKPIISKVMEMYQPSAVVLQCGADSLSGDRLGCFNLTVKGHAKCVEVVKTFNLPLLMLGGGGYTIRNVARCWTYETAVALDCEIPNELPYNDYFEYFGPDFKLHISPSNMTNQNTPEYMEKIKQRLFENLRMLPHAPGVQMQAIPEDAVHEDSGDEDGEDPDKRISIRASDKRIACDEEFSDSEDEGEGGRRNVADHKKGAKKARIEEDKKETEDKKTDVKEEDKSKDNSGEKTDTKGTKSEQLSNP
UniProt O15379: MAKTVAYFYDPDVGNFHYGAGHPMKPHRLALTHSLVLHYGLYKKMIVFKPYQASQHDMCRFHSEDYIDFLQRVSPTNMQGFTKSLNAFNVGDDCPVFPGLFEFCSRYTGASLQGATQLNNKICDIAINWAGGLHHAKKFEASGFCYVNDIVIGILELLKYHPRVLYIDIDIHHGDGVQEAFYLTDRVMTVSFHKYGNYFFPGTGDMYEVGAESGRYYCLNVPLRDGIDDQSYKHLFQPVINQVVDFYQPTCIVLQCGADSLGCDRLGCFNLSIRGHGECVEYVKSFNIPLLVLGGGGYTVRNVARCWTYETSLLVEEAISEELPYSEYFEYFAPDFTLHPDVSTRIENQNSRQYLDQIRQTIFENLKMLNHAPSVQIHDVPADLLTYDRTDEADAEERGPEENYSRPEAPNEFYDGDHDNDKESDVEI
UniProt P56524: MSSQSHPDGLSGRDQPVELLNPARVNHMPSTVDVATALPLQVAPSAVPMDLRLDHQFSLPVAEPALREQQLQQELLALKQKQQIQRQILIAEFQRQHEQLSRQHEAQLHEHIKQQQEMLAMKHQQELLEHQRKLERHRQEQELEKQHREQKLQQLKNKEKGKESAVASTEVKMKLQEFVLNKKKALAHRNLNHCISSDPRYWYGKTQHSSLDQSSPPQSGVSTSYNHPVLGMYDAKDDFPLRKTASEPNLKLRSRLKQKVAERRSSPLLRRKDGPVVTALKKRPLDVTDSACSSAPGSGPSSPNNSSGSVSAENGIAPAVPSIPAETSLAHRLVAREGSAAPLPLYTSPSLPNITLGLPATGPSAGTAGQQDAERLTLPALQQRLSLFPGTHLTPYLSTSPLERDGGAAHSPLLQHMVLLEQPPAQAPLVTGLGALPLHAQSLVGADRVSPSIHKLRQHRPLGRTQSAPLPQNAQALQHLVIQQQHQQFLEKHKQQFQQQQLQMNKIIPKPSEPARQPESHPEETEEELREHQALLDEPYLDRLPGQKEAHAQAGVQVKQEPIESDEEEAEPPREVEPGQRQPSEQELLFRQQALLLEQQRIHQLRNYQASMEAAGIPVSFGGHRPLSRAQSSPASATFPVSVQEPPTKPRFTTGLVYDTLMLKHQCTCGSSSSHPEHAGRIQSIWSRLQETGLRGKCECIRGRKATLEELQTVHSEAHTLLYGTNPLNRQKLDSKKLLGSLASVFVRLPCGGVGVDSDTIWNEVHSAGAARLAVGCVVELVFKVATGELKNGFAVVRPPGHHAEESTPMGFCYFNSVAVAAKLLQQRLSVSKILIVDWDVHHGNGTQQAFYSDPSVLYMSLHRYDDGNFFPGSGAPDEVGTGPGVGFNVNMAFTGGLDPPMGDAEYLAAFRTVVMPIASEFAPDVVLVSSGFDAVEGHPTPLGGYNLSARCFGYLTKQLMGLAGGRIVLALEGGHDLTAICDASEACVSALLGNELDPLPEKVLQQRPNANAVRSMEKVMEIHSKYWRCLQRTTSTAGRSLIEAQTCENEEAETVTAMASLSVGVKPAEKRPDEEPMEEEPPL
UniProt Q9UQL6: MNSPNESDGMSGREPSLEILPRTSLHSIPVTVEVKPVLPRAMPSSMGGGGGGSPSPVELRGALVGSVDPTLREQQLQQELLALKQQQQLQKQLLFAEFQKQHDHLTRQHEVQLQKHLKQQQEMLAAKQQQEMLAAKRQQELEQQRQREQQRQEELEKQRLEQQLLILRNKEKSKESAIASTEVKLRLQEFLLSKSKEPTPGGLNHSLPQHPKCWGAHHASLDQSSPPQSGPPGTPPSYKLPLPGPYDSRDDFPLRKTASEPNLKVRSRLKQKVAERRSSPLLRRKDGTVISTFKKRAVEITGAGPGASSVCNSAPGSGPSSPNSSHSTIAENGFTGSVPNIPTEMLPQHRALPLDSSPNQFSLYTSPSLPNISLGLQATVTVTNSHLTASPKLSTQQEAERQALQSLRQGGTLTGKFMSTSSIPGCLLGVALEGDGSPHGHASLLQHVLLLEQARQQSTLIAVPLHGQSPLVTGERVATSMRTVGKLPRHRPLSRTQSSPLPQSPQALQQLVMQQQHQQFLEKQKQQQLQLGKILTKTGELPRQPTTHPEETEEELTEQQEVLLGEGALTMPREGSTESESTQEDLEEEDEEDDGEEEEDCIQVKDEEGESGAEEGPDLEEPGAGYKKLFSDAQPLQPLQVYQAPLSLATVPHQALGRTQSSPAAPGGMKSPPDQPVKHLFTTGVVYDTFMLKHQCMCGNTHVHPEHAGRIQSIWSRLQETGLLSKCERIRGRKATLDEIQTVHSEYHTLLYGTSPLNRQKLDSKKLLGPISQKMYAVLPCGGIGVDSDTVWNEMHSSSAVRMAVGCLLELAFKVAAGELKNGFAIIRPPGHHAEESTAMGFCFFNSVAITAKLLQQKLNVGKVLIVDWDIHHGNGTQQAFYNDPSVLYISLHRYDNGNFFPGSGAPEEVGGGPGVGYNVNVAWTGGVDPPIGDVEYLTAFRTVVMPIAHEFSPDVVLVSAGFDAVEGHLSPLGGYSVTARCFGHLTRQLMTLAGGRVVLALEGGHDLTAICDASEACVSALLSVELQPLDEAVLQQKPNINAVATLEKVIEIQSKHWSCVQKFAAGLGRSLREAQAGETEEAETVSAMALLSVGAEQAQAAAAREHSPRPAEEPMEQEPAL
UniProt Q9UKV0: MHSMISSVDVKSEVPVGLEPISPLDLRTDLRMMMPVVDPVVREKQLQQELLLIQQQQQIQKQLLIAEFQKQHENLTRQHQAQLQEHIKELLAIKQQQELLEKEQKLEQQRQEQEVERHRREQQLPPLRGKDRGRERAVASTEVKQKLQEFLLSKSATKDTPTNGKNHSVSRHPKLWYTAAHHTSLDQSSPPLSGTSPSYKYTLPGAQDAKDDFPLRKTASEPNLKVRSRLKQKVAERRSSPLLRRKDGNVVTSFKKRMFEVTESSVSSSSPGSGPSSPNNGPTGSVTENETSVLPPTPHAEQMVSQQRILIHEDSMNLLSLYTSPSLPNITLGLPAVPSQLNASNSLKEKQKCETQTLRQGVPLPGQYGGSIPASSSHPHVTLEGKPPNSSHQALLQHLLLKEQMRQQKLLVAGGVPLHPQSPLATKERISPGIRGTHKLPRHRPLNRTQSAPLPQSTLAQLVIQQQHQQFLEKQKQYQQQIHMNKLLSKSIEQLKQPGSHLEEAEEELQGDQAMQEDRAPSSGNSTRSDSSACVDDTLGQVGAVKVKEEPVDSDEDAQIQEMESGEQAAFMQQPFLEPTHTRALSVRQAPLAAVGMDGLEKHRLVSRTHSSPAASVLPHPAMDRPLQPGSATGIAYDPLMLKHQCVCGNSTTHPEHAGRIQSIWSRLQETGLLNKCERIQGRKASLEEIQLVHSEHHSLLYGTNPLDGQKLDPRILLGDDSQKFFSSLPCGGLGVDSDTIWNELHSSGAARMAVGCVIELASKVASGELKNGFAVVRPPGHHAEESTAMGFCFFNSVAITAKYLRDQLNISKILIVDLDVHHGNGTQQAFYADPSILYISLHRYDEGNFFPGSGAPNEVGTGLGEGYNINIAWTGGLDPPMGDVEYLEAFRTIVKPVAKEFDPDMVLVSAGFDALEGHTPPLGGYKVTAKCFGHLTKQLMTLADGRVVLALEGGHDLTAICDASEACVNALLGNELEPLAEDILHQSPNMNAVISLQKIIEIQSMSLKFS

Histone deacetylase 2 = Histone deacetylase 2 (Homo sapiens, UniProt Q92769); test: Inhibition of recombinant HDAC2 assessed as inhibition of fluorogenic aminocoumarin release from substrate by trypsin-coupled biochemical assay
Histone deacetylase 3 = Histone deacetylase 3 (Homo sapiens, UniProt O15379); test: Inhibition of recombinant HDAC3 assessed as inhibition of fluorogenic aminocoumarin release from substrate by trypsin-coupled biochemical assay; how it was run: as §1
Histone deacetylase 4 = Histone deacetylase 4 (Homo sapiens, UniProt P56524); test: Inhibition of recombinant HDAC4 assessed as inhibition of fluorogenic aminocoumarin release from substrate by trypsin-coupled biochemical assay; how it was run: as §1
Histone deacetylase 5 = Histone deacetylase 5 (Homo sapiens, UniProt Q9UQL6); test: Inhibition of recombinant HDAC5 assessed as inhibition of fluorogenic aminocoumarin release from substrate by trypsin-coupled biochemical assay; how it was run: as §1
[1] = target: T1, Protein deacetylase HDAC6 (Homo sapiens, UniProt Q9UBN7); test: Inhibition of recombinant HDAC6 assessed as inhibition of fluorogenic aminocoumarin release from substrate by trypsin-coupled biochemical assay; how it was run: as §1
T1 sequence (Q9UBN7 whole entry): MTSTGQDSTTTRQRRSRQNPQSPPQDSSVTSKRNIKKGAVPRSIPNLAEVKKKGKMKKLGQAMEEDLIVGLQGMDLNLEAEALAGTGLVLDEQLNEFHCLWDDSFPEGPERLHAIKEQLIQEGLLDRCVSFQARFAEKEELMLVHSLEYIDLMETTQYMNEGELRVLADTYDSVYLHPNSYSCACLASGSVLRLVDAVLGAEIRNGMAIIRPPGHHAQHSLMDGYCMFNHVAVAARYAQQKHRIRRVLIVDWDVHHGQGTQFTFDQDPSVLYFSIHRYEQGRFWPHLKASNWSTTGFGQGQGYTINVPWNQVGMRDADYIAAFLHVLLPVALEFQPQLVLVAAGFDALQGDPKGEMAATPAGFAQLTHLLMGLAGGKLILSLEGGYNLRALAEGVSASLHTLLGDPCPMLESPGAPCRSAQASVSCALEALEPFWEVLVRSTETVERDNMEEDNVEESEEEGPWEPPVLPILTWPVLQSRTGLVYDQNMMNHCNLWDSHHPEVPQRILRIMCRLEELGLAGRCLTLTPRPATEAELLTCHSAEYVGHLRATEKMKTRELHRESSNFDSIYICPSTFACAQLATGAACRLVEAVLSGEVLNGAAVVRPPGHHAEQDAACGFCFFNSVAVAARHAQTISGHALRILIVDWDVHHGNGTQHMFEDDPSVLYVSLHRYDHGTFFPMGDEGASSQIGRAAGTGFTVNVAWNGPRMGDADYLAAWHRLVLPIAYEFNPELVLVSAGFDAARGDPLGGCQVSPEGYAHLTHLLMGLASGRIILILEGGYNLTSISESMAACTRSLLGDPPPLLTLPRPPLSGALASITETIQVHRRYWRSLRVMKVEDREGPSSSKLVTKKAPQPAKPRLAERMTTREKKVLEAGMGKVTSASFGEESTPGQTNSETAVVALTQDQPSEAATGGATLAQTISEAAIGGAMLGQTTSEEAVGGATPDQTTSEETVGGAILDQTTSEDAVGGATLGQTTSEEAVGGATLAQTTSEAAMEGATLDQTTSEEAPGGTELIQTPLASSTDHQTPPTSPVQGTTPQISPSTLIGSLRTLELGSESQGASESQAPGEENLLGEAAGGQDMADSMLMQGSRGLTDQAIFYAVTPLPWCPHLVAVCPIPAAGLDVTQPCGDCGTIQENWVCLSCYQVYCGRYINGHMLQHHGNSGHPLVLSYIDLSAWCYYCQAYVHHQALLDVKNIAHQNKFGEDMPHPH

Histone deacetylase 7 = target: T2, Histone deacetylase 7 (Homo sapiens, UniProt Q8WUI4); test: Inhibition of recombinant HDAC7 assessed as inhibition of fluorogenic aminocoumarin release from substrate by trypsin-coupled biochemical assay
T2 sequence (Q8WUI4 whole entry): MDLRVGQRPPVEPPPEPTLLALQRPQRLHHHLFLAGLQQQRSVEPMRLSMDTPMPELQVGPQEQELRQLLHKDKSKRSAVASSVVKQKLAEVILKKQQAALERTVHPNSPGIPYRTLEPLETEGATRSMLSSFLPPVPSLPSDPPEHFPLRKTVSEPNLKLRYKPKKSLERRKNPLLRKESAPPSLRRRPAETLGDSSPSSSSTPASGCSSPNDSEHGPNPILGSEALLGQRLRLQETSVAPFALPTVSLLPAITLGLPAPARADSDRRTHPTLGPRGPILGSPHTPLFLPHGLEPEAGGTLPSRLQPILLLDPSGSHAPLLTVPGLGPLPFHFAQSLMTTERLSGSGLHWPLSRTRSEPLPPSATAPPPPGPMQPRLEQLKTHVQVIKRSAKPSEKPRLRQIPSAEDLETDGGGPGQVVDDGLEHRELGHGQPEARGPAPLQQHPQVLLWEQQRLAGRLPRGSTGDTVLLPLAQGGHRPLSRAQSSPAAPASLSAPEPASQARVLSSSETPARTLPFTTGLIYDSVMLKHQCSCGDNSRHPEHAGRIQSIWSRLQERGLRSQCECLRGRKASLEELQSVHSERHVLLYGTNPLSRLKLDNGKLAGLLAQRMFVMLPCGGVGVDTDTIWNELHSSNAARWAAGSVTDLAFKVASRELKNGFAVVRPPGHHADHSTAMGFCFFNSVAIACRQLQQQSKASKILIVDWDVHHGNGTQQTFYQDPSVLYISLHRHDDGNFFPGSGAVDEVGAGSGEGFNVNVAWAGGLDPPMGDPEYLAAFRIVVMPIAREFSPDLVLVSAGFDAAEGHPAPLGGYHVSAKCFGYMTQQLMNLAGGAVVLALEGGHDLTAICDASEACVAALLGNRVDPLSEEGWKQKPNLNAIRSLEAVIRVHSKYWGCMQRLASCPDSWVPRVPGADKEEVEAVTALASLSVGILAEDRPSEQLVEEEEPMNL

Histone deacetylase 8 = target: T3, Histone deacetylase 8 (Homo sapiens, UniProt Q9BY41); test: Inhibition of recombinant HDAC8 assessed as inhibition of fluorogenic aminocoumarin release from substrate by trypsin-coupled biochemical assay; how it was run: as §1
T3 sequence (Q9BY41 whole entry): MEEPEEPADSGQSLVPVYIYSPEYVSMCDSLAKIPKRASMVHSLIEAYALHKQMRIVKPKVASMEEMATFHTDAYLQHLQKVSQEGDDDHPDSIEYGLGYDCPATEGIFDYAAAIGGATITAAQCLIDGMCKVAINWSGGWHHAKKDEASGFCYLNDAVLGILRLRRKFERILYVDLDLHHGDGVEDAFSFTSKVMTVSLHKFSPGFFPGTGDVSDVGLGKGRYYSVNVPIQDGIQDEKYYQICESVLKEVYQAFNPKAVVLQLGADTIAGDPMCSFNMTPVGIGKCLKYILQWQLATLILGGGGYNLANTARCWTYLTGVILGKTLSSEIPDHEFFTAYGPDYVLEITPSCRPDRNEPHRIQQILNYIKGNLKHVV

Histone deacetylase 9 = Histone deacetylase 9 (Homo sapiens, UniProt Q9UKV0); test: Inhibition of recombinant HDAC9 assessed as inhibition of fluorogenic aminocoumarin release from substrate by trypsin-coupled biochemical assay; how it was run: as §1

Cc1cc(O)nc(SCC(=O)c2ccc3c(c2)NC(=O)C3)n1
IC50 (Histone deacetylase 1): > 100 µM
IC50 (Histone deacetylase 2): > 100 µM
IC50 (Histone deacetylase 3): > 100 µM
IC50 (Histone deacetylase 4): > 100 µM
IC50 (Histone deacetylase 5): > 100 µM
IC50 [1]: 32.6 µM
IC50 (Histone deacetylase 7): > 100 µM
IC50 (Histone deacetylase 8): > 100 µM
IC50 (Histone deacetylase 9): > 100 µM

— ChEMBL document CHEMBL1800036, “A novel HDAC inhibitor with a hydroxy-pyrimidine scaffold” (Bioorg Med Chem Lett, 2011)
